The target in data set [1] is T1, Voltage-dependent L-type calcium channel subunit alpha-1C (Homo sapiens, UniProt Q13936). The data set can be described thus: Inhibition of long-lasting type calcium current (hICa) in Chinese Hamster Ovary (CHO) cells expressing hCav1.2 measured using IonWorks Quattro automated patch clamp platform.
In data set [2] the target is T1, Voltage-dependent L-type calcium channel subunit alpha-1C. The data set can be described thus: Inhibition of long-lasting type calcium current (ICaL) in HEK293 cells (alpha1C/beta2a/alpha2delta1) cells measured using IonWorks Barracuda automated patch clamp platform.

`Cc1nnc(C(=O)NC(C)(C)c2nc(C(=O)NCc3ccc(F)cc3)c(O)c(=O)n2C)o1`: the pIC50 entry in data set [1] and in data set [2] was “Inactive” each time.
